Source: patent publication US20140093548A1, “METHOD FOR DECONTAMINATING THE SKIN WITH TEXTILE COMPOSITE MATERIAL” (published 2014)

Tested on: skin on the flexor forearm (stratum corneum)
Assay: Skin decontamination of volunteers analysed by tape stripping (UV filter absorption at 310 nm)
Conditions: 10 minutes after application, without decontamination

## CCCCC(CC)COC(=O)C=Cc1ccc(OC)cc1 (centres unmarked)
  deepest cell layer of corneocytes in which the UV filter could be detected: ≤ 7 cell layers
  topically applied UV filter detected in the first 10 tape strips: About 90%
